{
  "source": "paper PMC12282101",
  "about": "“Heat shock protein 90 chaperone activity is required for hepatitis A virus replication” (Journal of Virology, 2025)",
  "tested_on": "Huh-7.5.1 cells",
  "settings": "10 µM",
  "data": [
    {"smiles": "Clc1ccc(COC(Cn2ccnc2)c2ccc(Cl)cc2Cl)cc1", "note": "(stereo not shown) [Econazole]", "values": [
      {"measurement": "Viability Percent DMSO", "value": 104, "unit": "Percent DMSO"}
    ]}
  ]
}
